Data on two compounds can be found in US12071415B2, “Carbon monoxide prodrugs for the treatment of medical disorders” (Georgia State University Research Foundation, Inc., priority 2018, dated 2024).

The conditions of data set [1]: pKa of the conjugate acid of the leaving group; no measurement described; cited from earlier work.
A short description of data set [2]: Quantitative CO analysis by GC with thermal conductivity detector. The format is physicochemical. The conditions noted are these: 37° C. Here is the method:
An Agilent […] GC System equipped with a thermal conductivity detector was used to detect and quantify CO release yield of the CO prodrugs. Using a gas tight syringe, specific volumes of the headspace of 20-mL headspace vials were sampled and transferred to the injector port maintained at 125° C. Helium was used as the carrier gas with a flow rate of 30 mL/min. Gaseous components of the headspace were separated by passing through a packed column with 60/80 Carboxen-1000 matrix support, […] (4.6 m)×1⁄8 in.×2.1 mm (Supelco). The column was heated 35° C. for 5 min then 225° C. at 20° C./min while the detector was held at 125° C.

Consider `O=C(Oc1ccc([N+](=O)[O-])cc1[N+](=O)[O-])C(=O)Oc1ccc([N+](=O)[O-])cc1[N+](=O)[O-]`, for which the pKa in data set [1] was 4.09.

Take `O=C(O)C(=O)N1C(=O)c2ccccc2S1(=O)=O`: the CO release yield entry in data set [2] (4 to 1 acetonitrile: water, 1 h (FIG. 10)) was “around 40%”. For the same compound, the CO2 yield result in data set [2] (ACN:H2O (4:1), 1 hour (FIG. 10)) is listed as “around 40%”.

The term pKa denotes the pH at which an ionisable group is half protonated.
